Assay results: patent US11912703B2, “6-azaindole compounds” (BRISTOL-MYERS SQUIBB COMPANY, priority 2017, dated 2024)

Sequences of proteins named here, by UniProt entry; tags and fusion partners are left off. Residues count along the entry.
UniProt Q9NYK1, 27-1049: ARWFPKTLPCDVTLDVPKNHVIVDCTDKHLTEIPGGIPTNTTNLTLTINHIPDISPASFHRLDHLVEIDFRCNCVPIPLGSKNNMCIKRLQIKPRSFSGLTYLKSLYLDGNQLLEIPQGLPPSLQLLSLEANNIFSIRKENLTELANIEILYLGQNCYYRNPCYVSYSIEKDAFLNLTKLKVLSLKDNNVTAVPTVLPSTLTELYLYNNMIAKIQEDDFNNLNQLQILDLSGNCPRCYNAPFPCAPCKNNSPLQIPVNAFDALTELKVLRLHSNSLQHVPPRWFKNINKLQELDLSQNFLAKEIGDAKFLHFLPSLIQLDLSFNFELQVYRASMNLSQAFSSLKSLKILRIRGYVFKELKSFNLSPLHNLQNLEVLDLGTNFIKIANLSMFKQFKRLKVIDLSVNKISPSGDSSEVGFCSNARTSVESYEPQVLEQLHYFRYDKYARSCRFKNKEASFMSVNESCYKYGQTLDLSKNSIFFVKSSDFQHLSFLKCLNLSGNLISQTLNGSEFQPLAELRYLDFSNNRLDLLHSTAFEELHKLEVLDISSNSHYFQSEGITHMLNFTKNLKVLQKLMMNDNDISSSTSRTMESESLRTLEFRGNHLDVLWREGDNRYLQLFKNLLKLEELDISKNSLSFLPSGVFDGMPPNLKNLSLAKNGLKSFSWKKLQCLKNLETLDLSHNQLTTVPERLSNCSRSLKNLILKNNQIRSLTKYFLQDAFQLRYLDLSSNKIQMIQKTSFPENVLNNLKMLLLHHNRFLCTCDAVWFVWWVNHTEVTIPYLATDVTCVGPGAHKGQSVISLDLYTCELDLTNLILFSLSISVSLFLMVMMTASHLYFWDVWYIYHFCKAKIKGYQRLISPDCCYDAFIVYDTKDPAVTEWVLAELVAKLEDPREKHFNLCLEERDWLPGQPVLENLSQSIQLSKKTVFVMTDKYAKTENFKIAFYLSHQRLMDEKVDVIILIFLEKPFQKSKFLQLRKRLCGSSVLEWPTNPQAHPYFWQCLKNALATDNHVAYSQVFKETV

Biological target: human TLR7 (Homo sapiens (Human), UniProt Q9NYK1)
Assay: TLR7 inhibition reporter assay (HEK-Blue SEAP)
Format: cell-based
Conditions: HEK-Blue cells overexpressing human TLR7, gardiquimod 7.5 μM stimulation

- IC50: 1.3 nM
SMILES: COc1cc(-c2[nH]c3cnc(C4CCC(N5CC(OC)C5)CC4)c(C)c3c2C(C)C)cn2ncnc12 (stereo not shown) [Example 180]
